Results as given in PMC6286779, “HLA-A2-Restricted Epitopes Identified from MTA1 Could Elicit Antigen-Specific Cytotoxic T Lymphocyte Response” (Journal of Immunology Research, 2018).

Target: HLA-A*0201 molecule on T2 cells (human (endogenous in T2) | human)
Test: flow cytometry on cells; T2 binding assay: T2 cells (1 x 10^6 cells/ml) with peptide (50 μg/ml) and 3 μg/ml human β2-M in serum-free RPMI 1640, 18 h, 37°C; surface HLA-A2 stained with BB7.2 PE-Cyanine7; fluorescence index (FI); FI > 1.5 classed as high affinity

Work on HBcAg 18-27 peptide yielded an FI (fluorescence index) of 1.21.
